## Antibody variant affinities, Ab-14 heavy chain, assay 1

From the AlphaSeq antibody data of Engelhart et al. 2022 (doi:10.1038/s41597-022-01779-4), copy in the FLAb collection.

Antigen: PDVDLGDISGINAS, a 14-residue peptide of the SARS-CoV-2 spike HR2 region.

Parent scFv Ab-14: VH joined to VL by the linker GGGGSGGGGSGGGGS. Changes lie in the heavy chain CDRs alone.
VH: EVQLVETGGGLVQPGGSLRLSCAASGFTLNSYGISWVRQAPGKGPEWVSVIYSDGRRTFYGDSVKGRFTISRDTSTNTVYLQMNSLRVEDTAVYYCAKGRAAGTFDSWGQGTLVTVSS
VL: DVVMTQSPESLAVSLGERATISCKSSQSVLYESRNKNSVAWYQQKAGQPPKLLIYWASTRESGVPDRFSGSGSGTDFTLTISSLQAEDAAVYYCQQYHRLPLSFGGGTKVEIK

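Phage display of a naive human antibody library on the peptide gave the parent. In library AAYL49, one, two or three CDR residues were substituted; doubles and triples were drawn at random. AlphaSeq pools MATa yeast showing the antibodies with MATalpha yeast showing the peptide. Binding brings cells together so that they mate, and sequencing counts the barcode pairs among the diploids. Each replicate has its own calibration line, from reference interactions of the BCL2 family. The assay was run in three technical replicates.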

Substitutions are numbered in sequence along the VH above, starting at 1 (not Kabat). Scale: log10 of Kd in nM, estimated from mating counts; low values are strong binders. A pair that was not seen in that replicate is written "ND"; this usually means weak binding, but a binder can also be missed. In this assay the parent's reference entry averaged 0.65; its copy inside this library read 4.11 (one replicate of three). Background: pairings of library AAYL49 with three empty control strains gave a value in 15% of cases (median 4.06, 5th percentile 2.83). Values in that range, when seen in few replicates, are hard to tell from nonspecific mating. Also given: how often the same scFv was detected with the empty control strains, with their mean in brackets.

| changes | replicates, log10 nM | control signals |
|---|---|---|
| T58M+K65E+S107Y | 2.32 2.41 2.01 | 2 of 9 (4.04) |
| S31P+T58V | 3.00 ND ND | 3 of 9 (3.58) |
| A101V+T104M | 1.26 1.22 1.02 | 0 of 9 |
| Y52E+G55P+A102V | ND ND ND | 0 of 9 |
| L29P+S53M+D54H | 4.10 ND ND | 4 of 9 (4.08) |
| S31T+Y32M+T104R | 2.62 2.34 3.08 | 3 of 9 (3.76) |
| L29Q+T58A+V64I | ND 3.52 ND | 2 of 9 (3.49) |
| S31C+S53P+A101N | 1.98 4.83 2.66 | 4 of 9 (4.32) |
| S31A+Y52L+R57M | ND 5.31 3.94 | 2 of 9 (3.91) |
| Y52R+A101E+D106M | ND ND ND | 3 of 9 (3.48) |
| T28C+A101L | 1.70 1.59 1.58 | 0 of 9 |
| G55A | 3.26 5.40 3.41 | 5 of 9 (4.76) |
| L29C+F59L+G61Q | ND ND ND | 0 of 9 |
| S31T+V50S+G103P | ND ND ND | 0 of 9 |
| R56A+Y60M+D106N | 2.58 ND 3.92 | 2 of 9 (4.89) |
| T28D+L29M+V50Y | ND 3.90 ND | 1 of 9 (4.05) |
| L29N+I51P+F105E | ND ND ND | 4 of 9 (5.15) |
| G33K+I34K+A102Y | ND ND ND | 0 of 9 |
| N30R+G33Q+S107H | 5.98 ND ND | 2 of 9 (3.78) |
| L29F+R56D | ND ND 4.81 | 0 of 9 |
| T28I+D106Q | 1.71 2.08 1.95 | 1 of 9 (5.35) |
| T58N+S63C+G103H | ND ND ND | 2 of 9 (5.06) |
| I34S+S63N | ND ND ND | 0 of 9 |
| D54M+A101R | ND ND ND | 1 of 9 (3.42) |
| Y32R+D62L+S63R | ND 2.82 ND | 0 of 9 |
| R57A+T58S+T104K | ND ND 2.63 | 1 of 9 (3.68) |
| Y32E+F105L+D106F | ND ND 4.34 | 0 of 9 |
| L29C+N30S+I34E | 5.26 5.30 4.17 | 3 of 9 (4.68) |
| L29P+F59Y+S63P | ND ND ND | 4 of 9 (4.15) |
| R56W+S63Q+R100T | 1.78 2.02 2.26 | 1 of 9 (5.56) |
| I51R+F59K+S107Q | ND ND ND | 0 of 9 |
| R56S+Y60L+A101V | 0.57 1.19 1.41 | 0 of 9 |
| Y32Q+S35Y+D54C | ND ND ND | 3 of 9 (3.67) |
| V50I+S53D+R56V | 4.17 5.01 ND | 4 of 9 (4.06) |
| F27P+D62V+S63K | ND ND ND | 0 of 9 |
| T28V+Y60H+F105G | 4.51 2.51 2.69 | 1 of 9 (3.85) |
| Y52H+F59R+G99I | ND ND ND | 1 of 9 (4.46) |
| I34E+A102W | ND ND ND | 2 of 9 (3.62) |
| I34F+A102H | ND ND ND | 0 of 9 |

A selection of 6 entries from above:

{"changes": "Y52H+F59R+G99I", "replicates, log10 nM": "ND ND ND", "control signals": "1 of 9 (4.46)"}
{"changes": "T58M+K65E+S107Y", "replicates, log10 nM": "2.32 2.41 2.01", "control signals": "2 of 9 (4.04)"}
{"changes": "Y52E+G55P+A102V", "replicates, log10 nM": "ND ND ND", "control signals": "0 of 9"}
{"changes": "T58N+S63C+G103H", "replicates, log10 nM": "ND ND ND", "control signals": "2 of 9 (5.06)"}
{"changes": "L29N+I51P+F105E", "replicates, log10 nM": "ND ND ND", "control signals": "4 of 9 (5.15)"}
{"changes": "T28D+L29M+V50Y", "replicates, log10 nM": "ND 3.90 ND", "control signals": "1 of 9 (4.05)"}